miR-21 reporter: miR-21 reporter, rising signal. HeLa miR-21 FLuc reporter, luciferase, 48 h. Potency, µM (highest dose often 38.3 µM), for the others: at the highest dose reporter change, positive = more light. 340,000 tested, under 10 active. AID 2288; active = well fitted rising curve with a large enough effect; inconclusive = small, poorly fitted or top-dose-only effect; inactive = no such curve, though single readings can be large or run the other way;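 further: % of control where 0% means no effect; miR-21 action dims this reporter so a rising signal means less miR-21 action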
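Compounds were titrated across several concentrations (up to approximately 40 uM) and incubated 48 hours with HeLa miR-21-FLuc reporter cells (miR-21 target sequence downstream of FLuc, endogenous miR-21). Readout was firefly luciferase luminescence after lytic detection reagent.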
ALDH1A1 block: inhibitors of human aldehyde dehydrogenase 1A1 | 220,000 compounds, 7.3% hits | P00352 | Potency, µM (titrated, usually from 75.3 µM), without a hit: at the top dose activity, negative = inhibition, usual class: inhibitors | Purified ALDH1A1, NADH fluorescence, propionaldehyde substrate; active = well fitted inhibition curve with a large enough effect, not every such curve was filed as active; inconclusive = small, poorly fitted or top-dose-only effect, or another doubt; inactive = no such curve, though single readings can be large or run the other way;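 also: potency is read from the fitted curve at half-maximal effect; plate controls were no enzyme wells and a reference inhibitor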
G9a inh: blocks human histone lysine methyltransferase G9a. 350,000 compounds, 8.8% hits. Potency, µM (highest dose often 102 µM), without a hit: at the highest dose activity, negative = inhibition, hits mostly inhibitors. G9a H3K9 monomethylation, AlphaScreen, 2 h. Q96KQ7. AID 504332; also: potency is read from the fitted curve at half-maximal effect; % is scaled to controls: 0 for no effect and ±100 for the full control effect; nearly all actives have a fitted effect of over 75% in size
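Step 1: enzyme (final 20 nM) with compound, 15 min RT. Step 2: substrate peptide 500 nM and SAM 20 uM, 2 h RT. Step 3: anti-H3K9me1 antibody and AlphaScreen beads, 10 min, then plate read.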
JMJD2E inh: blocks human JMJD2E demethylase activity; Potency, µM (doses to about 57.1 µM), for inactives: at the highest dose activity change, negative = inhibition, usual class: inhibitors; B2RXH2; 230,000 compounds, 1.6% hits; JMJD2E catalytic domain, FDH-coupled NADH fluorescence (FDH is formaldehyde dehydrogenase);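 also: potency is read from the fitted curve at half-maximal effect; 0% = wells with enzyme and -100% = buffer wells without enzyme; nearly all actives have a fitted effect of over 50% in size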
Sfp PPTase inh: inhibitors of Bacillus subtilis Sfp phosphopantetheinyl transferase. Q9F4F7. Biochemical Sfp PPTase activity, qHTS. Potency, µM, inactives show max response, negative = inhibition, most hits filed as inhibitors. 3.5% of 310,000 active. AID 1490; active = well fitted inhibition curve with a large enough effect; inconclusive = small, poorly fitted or top-dose-only effect, or another doubt; inactive = no such curve, though single readings can be large or run the other way;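 also: the enzyme is Sfp with the accession as filed and its product quenches rhodamine fluorescence; potency is read from the fitted curve at half-maximal effect; 0% = enzyme reaction without inhibitor and -100% = no enzyme wells; top concentration of the series not given in the record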
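Buffer: 50 mM Hepes-Na pH 7.6, 10 mM MgCl2, 0.01% Nonidet P-40, 0.01% BSA. Enzyme 15 nM, pre-exposed to compound 15 min; substrates then added and fluorescence change tracked over 30 min.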
LMNA splice mod: modulators of lamin A splicing; HeLa LMNA splicing GFP/RFP minigene ratio, 48 h; Potency, µM (top dose mostly 46.1 µM), without a hit: at the top dose ratio change, negative = inhibition, most hits filed as inhibitors; 200,000 compounds, 0.01% hits; AID 1487; active = well fitted inhibition curve with a large enough effect in the signal ratio, with a control signal flat, not every such curve was filed as active; inconclusive = small, poorly fitted or top-dose-only effect, or effect the other way, or a change in a side signal; the % refers to the signal ratio; also: potency is read from the fitted curve at half-maximal effect; % is scaled to controls: 0 for no effect and ±100 for the full control effect
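S3 HeLa stable clones carrying a lamin A-EGFP splicing minigene plus DsRed2 were seeded at 600 cells/well in Opti-MEM with 2% FBS, pin-dosed and incubated 48 h at 37°C. Acumen cytometry (488 nm) gave the GFP/RFP total-intensity ratio.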
Active calls of the source: *; [ ] = another dose, or the depositor's remark. Compounds with a hit are over-represented: about 13% of the library has one in this group of screens. Unless noted, calls follow the shape of the dose curve; as a rule, active = well fitted curve in the direction sought with a large enough effect; inconclusive = small, poorly fitted or top-dose-only effect, or another doubt; inactive = no such curve, though single readings can be large; an effect the other way counts as inactive or inconclusive.

What do the screens show for `Cc1occc1C(=O)NNC(=O)Nc1ccc([N+](=O)[O-])cc1`?
miR-21 reporter: -6%; ALDH1A1 block: 14µM*; G9a inh: -8%; JMJD2E inh: 4%; Sfp PPTase inh: 1%

What do the screens show for `CCC(C(=O)O)n1ccc2cc(S(=O)(=O)N3CCCCC3)ccc21` (stereo not given)?
miR-21 reporter: -2%; G9a inh: 6%[59 µM]

What do the screens show for `COC(=O)CN1C(=O)CSc2ccc(S(=O)(=O)Nc3ccc(Cl)cc3C)cc21`?
miR-21 reporter: 20%; G9a inh: inconclusive

How did COc1ccc2c(c1)cc1c(=O)n(CC(=O)NC3CC3)nc(C)n12 do in these assays?
miR-21 reporter: 1%; G9a inh: 8%[59 µM]

Results for CC(C)OCCCN1CN(S(=O)(=O)c2ccc(Cl)cc2)c2nc3ccccc3nc21 ?
miR-21 reporter: -19%; ALDH1A1 block: 28µM*; G9a inh: inconclusive; JMJD2E inh: inconclusive; Sfp PPTase inh: -7%; LMNA splice mod: inconclusive

What do the screens show for `O=S(=O)(c1cccs1)N1CN(CC2CCCO2)c2nc3ccccc3nc21` (stereo not given)?
miR-21 reporter: -17%; ALDH1A1 block: inconclusive; G9a inh: inconclusive; JMJD2E inh: inconclusive; Sfp PPTase inh: -3%; LMNA splice mod: 11%

How did CC(C)OCCCN1CN(S(=O)(=O)c2cccc(Cl)c2)c2nc3ccccc3nc21 do in these assays?
miR-21 reporter: -24%; ALDH1A1 block: inconclusive; G9a inh: 40%[0.501 µM]; JMJD2E inh: inconclusive; Sfp PPTase inh: -7%; LMNA splice mod: 5%[0.0737 µM]

What do the screens show for `Cc1ccc(S(=O)(=O)N2CN(CC3CCCO3)c3nc4ccccc4nc32)c(C)c1` (stereo not given)?
miR-21 reporter: -1%; G9a inh: 32µM*; Sfp PPTase inh: -12%

What do the screens show for `COCCCN1CN(S(=O)(=O)c2ccc(C)cc2C)c2nc3ccccc3nc21`?
miR-21 reporter: 1%; G9a inh: 32µM*; Sfp PPTase inh: -12%

Results for CCCCCN1CN(S(=O)(=O)c2cccs2)c2nc3ccccc3nc21 ?
miR-21 reporter: -10%; G9a inh: 28µM*; JMJD2E inh: inconclusive; Sfp PPTase inh: 4%

Results for CC(=O)c1cccc(Nc2cc(C)nc3nc(-c4ccccc4C)nn23)c1 ?
miR-21 reporter: -8%; G9a inh: 0%[59 µM]

Results for Cc1ccc2nc(-c3ccc(NC(=O)COc4ccc(Br)cc4Br)cc3)sc2c1 ?
miR-21 reporter: 0%; G9a inh: inconclusive

How did Cc1onc(-c2ccccc2)c1C(=O)N1CCN(S(=O)(=O)c2ccc3c(c2)OCCO3)CC1 do in these assays?
miR-21 reporter: -2%; ALDH1A1 block: 3.2µM*; G9a inh: -26%[59 µM]; JMJD2E inh: 0%; Sfp PPTase inh: 11%; LMNA splice mod: 5%

What do the screens show for `CC(=O)OCCCNc1cc(SCc2ccco2)c2nonc2c1[N+](=O)[O-]`?
miR-21 reporter: 23%; ALDH1A1 block: 7.9µM*; G9a inh: inconclusive; JMJD2E inh: -19%; Sfp PPTase inh: 25µM*; LMNA splice mod: -24%

What do the screens show for `CCCC(=O)OCCNc1cc(Sc2nccn2C)c2nonc2c1[N+](=O)[O-]`?
miR-21 reporter: inconclusive; ALDH1A1 block: inconclusive; G9a inh: 28µM*; JMJD2E inh: -1%; Sfp PPTase inh: 35µM*; LMNA splice mod: -19%

How did CCCSc1cc(NCCOC(=O)CCC)c([N+](=O)[O-])c2nonc12 do in these assays?
miR-21 reporter: 11%; ALDH1A1 block: inconclusive; G9a inh: inconclusive; JMJD2E inh: -3%; Sfp PPTase inh: -18%; LMNA splice mod: inconclusive

Results for CCCSc1cc(NCCOC(C)=O)c([N+](=O)[O-])c2nonc12 ?
miR-21 reporter: -11%; ALDH1A1 block: 6%; G9a inh: -28%; JMJD2E inh: 0%; Sfp PPTase inh: -17%; LMNA splice mod: -11%

Results for CCCC(=O)OCCNc1cc(SCc2ccco2)c2nonc2c1[N+](=O)[O-] ?
miR-21 reporter: 18%; ALDH1A1 block: 4.5µM*; G9a inh: 20µM*; JMJD2E inh: -1%; Sfp PPTase inh: 11µM*; LMNA splice mod: inconclusive

What do the screens show for `O=C(NC1CCCCC1)C1CC(=O)N(c2cccc([N+](=O)[O-])c2)C1` (stereo not given)?
miR-21 reporter: -1%; ALDH1A1 block: 2%; G9a inh: inconclusive; JMJD2E inh: 2%; Sfp PPTase inh: 17%

How did Cc1cc2occ(CC(=O)N(CCC(C)C)c3c(N)n(Cc4ccccc4)c(=O)[nH]c3=O)c2cc1C do in these assays?
G9a inh: 8%[0.501 µM]

Brought forward from above: 3 entries, followed by the next part.
Results for CCCC(=O)OCCNc1cc(SCc2ccco2)c2nonc2c1[N+](=O)[O-] ?
miR-21 reporter: 18%; ALDH1A1 block: 4.5µM*; G9a inh: 20µM*; JMJD2E inh: -1%; Sfp PPTase inh: 11µM*; LMNA splice mod: inconclusive

What do the screens show for `O=C(NC1CCCCC1)C1CC(=O)N(c2cccc([N+](=O)[O-])c2)C1` (stereo not given)?
miR-21 reporter: -1%; ALDH1A1 block: 2%; G9a inh: inconclusive; JMJD2E inh: 2%; Sfp PPTase inh: 17%

How did Cc1cc2occ(CC(=O)N(CCC(C)C)c3c(N)n(Cc4ccccc4)c(=O)[nH]c3=O)c2cc1C do in these assays?
G9a inh: 8%[0.501 µM]

How did Cc1cc(C)n(CCc2nc(-c3ccc(F)cc3)cs2)n1 do in these assays?
miR-21 reporter: -42%; ALDH1A1 block: 3%; G9a inh: -6%[59 µM]; JMJD2E inh: -1%; Sfp PPTase inh: 13%; LMNA splice mod: inconclusive

Results for COc1cc(-c2csc(CCn3nc(C)cc3C)n2)cc(OC)c1OC ?
miR-21 reporter: 10%; ALDH1A1 block: -12%; G9a inh: 32µM*; JMJD2E inh: -1%; Sfp PPTase inh: -3%

How did C/C(=N/NS(=O)(=O)c1ccc(C)cc1)c1c(O)c2ccccc2oc1=O do in these assays?
miR-21 reporter: -2%; G9a inh: 50µM*; JMJD2E inh: 2%; Sfp PPTase inh: 11%

What do the screens show for `C/C(=N\NC(=O)c1ccncc1)c1cc2ccccc2oc1=O`?
miR-21 reporter: 3%; ALDH1A1 block: 13%; G9a inh: 8%[59 µM]; JMJD2E inh: 14µM*; Sfp PPTase inh: 23%; LMNA splice mod: -8%

How did C/C(=N\NC(=O)c1ccc([N+](=O)[O-])cc1)c1cc2ccccc2oc1=O do in these assays?
miR-21 reporter: 15%; ALDH1A1 block: 0%; G9a inh: 23%[59 µM]; JMJD2E inh: -24%; Sfp PPTase inh: 13%; LMNA splice mod: inconclusive

What do the screens show for `C/C(=N\NS(=O)(=O)c1ccc(C)cc1)c1cc2ccccc2oc1=O`?
miR-21 reporter: -27%; ALDH1A1 block: 16µM*; G9a inh: -25%; JMJD2E inh: -19%; Sfp PPTase inh: 8%; LMNA splice mod: inconclusive

Results for Cc1ccc(S(=O)(=O)Nc2c(O)c3ccccc3oc2=O)cc1C ?
miR-21 reporter: -16%; G9a inh: 50µM*; Sfp PPTase inh: 10%

What do the screens show for `CCCCCN=C(C)c1c(O)c2ccccc2oc1=O`?
miR-21 reporter: -40%; ALDH1A1 block: inconclusive; G9a inh: -6%; JMJD2E inh: 1%; Sfp PPTase inh: -10%; LMNA splice mod: 3%

What do the screens show for `CCOC(=O)c1c(C)n(-c2ccccc2)c2ccc(OC(=O)c3cc(OC)cc(OC)c3)cc12`?
miR-21 reporter: -10%; G9a inh: -47%[59 µM]
